The values below are quoted from earlier work in US20080045610A1, “Methods for regulating neurotransmitter systems by inducing counteradaptations” (priority 2004, published 2008).

Sequences of proteins named here, by UniProt entry; tags and fusion partners are left off. A change or cut given only in a name is not applied to a line headed by its entry.
UniProt P41145: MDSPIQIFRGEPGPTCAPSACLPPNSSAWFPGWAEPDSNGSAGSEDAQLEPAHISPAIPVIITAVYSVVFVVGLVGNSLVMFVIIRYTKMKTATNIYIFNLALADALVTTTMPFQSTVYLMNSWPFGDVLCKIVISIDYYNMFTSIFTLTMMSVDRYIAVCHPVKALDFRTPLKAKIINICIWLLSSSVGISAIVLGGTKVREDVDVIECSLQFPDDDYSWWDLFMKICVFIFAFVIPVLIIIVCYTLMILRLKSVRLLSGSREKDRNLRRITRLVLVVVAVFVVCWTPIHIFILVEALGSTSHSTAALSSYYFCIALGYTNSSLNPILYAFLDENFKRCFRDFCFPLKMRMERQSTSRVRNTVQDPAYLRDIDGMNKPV

The series concerns the target kappa receptor (Homo sapiens, UniProt P41145).

In the case of `CN(C(=O)Cc1cccc2occc12)[C@H]1CC[C@@]2(CCCO2)C[C@@H]1N1CCCC1`, the “oral dose with pharmaceutical activity” value is 1 to 10 mg/kg.
